Source: PMC9412555, “Benzothiazole Derivatives Endowed with Antiproliferative Activity in Paraganglioma and Pancreatic Cancer Cells: Structure–Activity Relationship Studies and Target Prediction Analysis” (Pharmaceuticals, 2022)

Tested on: HFF-1
Assay: MTT cell viability assay, normal fibroblasts HFF-1
Format: cell-based, human
Settings: HFF-1, GEM 10 µM, 72 h
Procedure: Compounds 4a–p were submitted to a preliminary MTT assay at a one-point screening concentration of 75 μM for 72 h, including 2b as a reference compound (Figure 3). […] The presence of the electron-donating methoxy group decreased the activity of 2b, in both the para and meta positions. […] Specifically, these compounds, namely 4d, 4e, 4f, 4h, 4i, 4j, 4k, 4l, and 4m, were tested at concentrations of 3, 6, 12 and 24 µM for 72 h. In addition, the nine compounds, together with 2b, were tested against human fibroblasts HFF-1, in order to evaluate their selectivity against tumor cells, as compared to normal cells. Effects on cancer or normal cell viability were extrapolated from concentration–response curves and are expressed as IC50 values in Table 2.
Pancreatic cancer (AsPC-1, BxPC-3, and Capan-2), paraganglioma (PTJ86i and PTJ64i) and normal fibroblast (HFF-1) cell lines were cultured as previously described. All compounds were dissolved in DMSO (stock solutions) and then diluted in culture media to the final working concentrations. […]
IC50 values were extrapolated from concentration–response curves and calculated using the CompuSyn software. The interactions between compound 4l and gemcitabine were assessed by calculating the CI values using the CompuSyn software. […] SI values were calculated as previously described. […]

Nc1ccn([C@@H]2O[C@H](CO)[C@@H](O)C2(F)F)c(=O)n1 [GEM, gemcitabine, reference compound]
Inhibition Rate of Cell Viability: 26.27%
